In PubChem BioAssay AID1259312 (Keith Lab, Institute of Cancer Science, University of …, 2017):
Only a part is listed here, and it is no random draw. Active and inactive are the calls of the source.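 The calls were made as follows: active = cell survival measured by absorbance rises more than 2.5-fold over infected cells without compound; inactive = the rest.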

Test: survival after telomere uncapping, modulators, primary screen, cell-based (AID 1259312);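 also: virus expresses mutant telomerase RNA that uncaps telomeres and kills cells; compound added 2 days after infection so exposure lasts 3 days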
Settings: HCT116 + Ad-hTR-mut, MTT, 5 d, at 10 µM, hits give high values

SMILES | fold change
Nc1nc(N)c([N+](=O)[O-])cc1[N+](=O)[O-] | inactive: 1.23
Cc1c(Cl)c([N+](=O)[O-])nn1[N+](=O)[O-] | inactive: -1.53
O=C1c2c([N+](=O)[O-])cc([N+](=O)[O-])c(O)c2C(=O)c2c(O)c([N+](=O)[O-])cc([N+](=O)[O-])c21 | inactive: 2.09
Cc1nn([N+](=O)[O-])cc1[N+](=O)[O-] | inactive: -1.31
C=CC[C@H]1CC(C(O)(CC=C)CC=C)=C[C@@H](CC=C)N1.O=[N+]([O-])c1cc([N+](=O)[O-])c(O)c([N+](=O)[O-])c1 | inactive: -1.15
O=C(O)C1(O)c2ccccc2-c2ccccc21 | inactive: -1.65
